The structures appear in SMILES notation.

One assay is filed under the species Mus musculus. The assay is described as follows: Ke value for naloxone as antagonist (compound) was measured by using Mouse vas deferens (MVD) assay.
The species named for the next assay is Cavia porcellus. Description: Ke value for naloxon as antagonist (compound) was measured by using Guinea pig ileum assay.

In the case of `CC(C)C[C@H](NC(=O)[C@H](Cc1ccccc1)NC(=O)CNC(=O)CNC(=O)[C@@H](N)Cc1ccc(O)cc1)C(=O)O`, in the assay filed under Mus musculus, the Ke worked out at 21.4 nM.

As to `C[C@@H](NC(=O)[C@@H](N)Cc1ccc(O)cc1)C(=O)NCC(=O)N(C)[C@@H](Cc1ccccc1)C(=O)NCCO` [DAMGO], in the assay filed under Cavia porcellus, the Ke was determined as 0.8 nM.

Source of the values: ChEMBL document CHEMBL1124430, “Dermorphin analogues carrying an increased positive net charge in their "message" domain display extremely high mu opioid receptor selectivity” (J Med Chem, 1989).
